Holding throughout (assay): radiometric filter-binding kinase assay, Kinase HotSpot
Common to all, as to conditions: compound 0.5 µM; ATP 10 µM

The chains behind the UniProt entries cited, without tags or fusion partners. Where a name states a change or a piece, a line headed by the entry shows the natural chain unless it says otherwise.
ARAF (human), P10398, UniProt P10398, whole entry Y301D/Y302D, looked up: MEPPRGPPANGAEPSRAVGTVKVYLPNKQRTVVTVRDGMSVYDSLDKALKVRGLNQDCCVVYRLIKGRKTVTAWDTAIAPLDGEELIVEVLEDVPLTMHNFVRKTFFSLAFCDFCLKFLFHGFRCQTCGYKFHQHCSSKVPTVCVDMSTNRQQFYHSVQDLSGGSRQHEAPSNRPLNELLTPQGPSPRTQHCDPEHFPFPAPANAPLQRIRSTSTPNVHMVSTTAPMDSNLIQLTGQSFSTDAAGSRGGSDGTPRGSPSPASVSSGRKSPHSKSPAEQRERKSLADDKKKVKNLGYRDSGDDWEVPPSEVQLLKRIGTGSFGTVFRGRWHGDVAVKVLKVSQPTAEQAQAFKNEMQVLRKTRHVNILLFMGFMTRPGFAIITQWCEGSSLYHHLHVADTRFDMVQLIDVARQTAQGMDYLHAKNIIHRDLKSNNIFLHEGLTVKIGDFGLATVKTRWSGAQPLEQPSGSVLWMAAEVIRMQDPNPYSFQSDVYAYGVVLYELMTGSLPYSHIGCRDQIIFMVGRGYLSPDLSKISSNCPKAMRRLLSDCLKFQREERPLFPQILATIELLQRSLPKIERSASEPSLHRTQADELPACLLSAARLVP
UniProt Q13237: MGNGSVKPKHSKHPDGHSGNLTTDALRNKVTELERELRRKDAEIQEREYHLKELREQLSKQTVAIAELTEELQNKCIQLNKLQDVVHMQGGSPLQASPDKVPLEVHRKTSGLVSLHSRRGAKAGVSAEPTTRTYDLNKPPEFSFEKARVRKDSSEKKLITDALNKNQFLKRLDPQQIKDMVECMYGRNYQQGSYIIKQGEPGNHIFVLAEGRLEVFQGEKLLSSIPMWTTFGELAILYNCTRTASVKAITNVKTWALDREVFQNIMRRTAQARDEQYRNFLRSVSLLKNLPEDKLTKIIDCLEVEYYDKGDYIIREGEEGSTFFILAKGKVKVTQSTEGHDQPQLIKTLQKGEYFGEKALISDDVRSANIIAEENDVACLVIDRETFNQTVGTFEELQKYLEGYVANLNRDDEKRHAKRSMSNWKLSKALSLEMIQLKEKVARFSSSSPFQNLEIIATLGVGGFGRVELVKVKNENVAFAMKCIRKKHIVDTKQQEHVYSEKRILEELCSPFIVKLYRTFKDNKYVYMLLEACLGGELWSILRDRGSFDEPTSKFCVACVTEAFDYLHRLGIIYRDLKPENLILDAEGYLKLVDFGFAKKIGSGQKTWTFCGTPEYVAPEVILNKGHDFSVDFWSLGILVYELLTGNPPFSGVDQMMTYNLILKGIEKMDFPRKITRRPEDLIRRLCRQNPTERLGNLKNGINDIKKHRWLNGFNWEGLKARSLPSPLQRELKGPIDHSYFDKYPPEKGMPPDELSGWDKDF
UniProt Q15418, whole entry, looked up: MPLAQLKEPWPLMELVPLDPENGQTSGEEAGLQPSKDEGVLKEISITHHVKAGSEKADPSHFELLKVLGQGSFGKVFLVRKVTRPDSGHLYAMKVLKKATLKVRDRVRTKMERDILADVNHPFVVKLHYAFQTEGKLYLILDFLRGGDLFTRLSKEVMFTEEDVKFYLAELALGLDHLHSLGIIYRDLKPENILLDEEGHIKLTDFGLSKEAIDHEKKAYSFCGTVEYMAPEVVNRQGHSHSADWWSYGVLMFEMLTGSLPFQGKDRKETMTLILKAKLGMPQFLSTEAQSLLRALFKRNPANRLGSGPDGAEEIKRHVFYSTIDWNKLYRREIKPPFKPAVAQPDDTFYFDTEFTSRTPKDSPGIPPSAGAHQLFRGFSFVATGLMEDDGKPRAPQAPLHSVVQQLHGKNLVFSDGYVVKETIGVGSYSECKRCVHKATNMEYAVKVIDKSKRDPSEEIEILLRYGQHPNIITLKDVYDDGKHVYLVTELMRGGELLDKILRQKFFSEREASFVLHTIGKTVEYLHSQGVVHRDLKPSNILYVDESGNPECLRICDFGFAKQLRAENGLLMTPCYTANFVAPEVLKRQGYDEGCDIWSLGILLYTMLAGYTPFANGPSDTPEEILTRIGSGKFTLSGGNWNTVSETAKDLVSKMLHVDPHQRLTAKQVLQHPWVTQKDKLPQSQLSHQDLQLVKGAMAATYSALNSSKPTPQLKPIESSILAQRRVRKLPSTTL

The test system of test [1] is ARAF (human), P10398 [Y301D/Y302D].
The target in another test is PRKG2 (human) (UniProt Q13237).
The target in a further test is RPS6KA1 KD1 KD2 (human) (UniProt Q15418).

On to `O=C1c2ccccc2-[n+]2ccc3c([nH]c4ccccc43)c21`, for which, in test [1], the residual activity came out at 80.8%.
As for `COc1cc(OC)c(/C=C2\C(=O)Nc3ccccc32)c(OC)c1`, the residual activity in test [1] was found to be 96.7%.
On to `COC(=O)[C@]1(O)C[C@@H]2O[C@@]1(C)n1c3ccccc3c3c4c(c5c6ccccc6n2c5c31)C(=O)NC4`, for which the residual activity is -4.02% on PRKG2 (human) and -5.99% on RPS6KA1 KD1 KD2 (human).
Take `CO[C@H]1[C@@H](OC)C[C@H](C)[C@@H](OC)C2=CC(=O)C=C(NC(=O)/C(C)=C\C=C/[C@H](OC)[C@@H](OC(N)=O)/C(C)=C\[C@@H]1C)C2=O`: the residual activity in test [1] amounted to 92.4%.

Broadly, the residual activity is the signal under treatment as a percentage of the control signal.

The record behind these values is the kinase profiling compilation of Christmann-Franck et al. (2016).
